Consider one molecule from US10577363B2, “Substituted piperidine compounds” (EPIZYME, INC., priority 2014, dated 2020).

Structures are written as SMILES.

The assay concerns the target SMYD3 (Homo sapiens (Human), UniProt Q9H7B4). Briefly: SMYD3 biochemical assay (SPA, 3H-SAM methylation of MEKK2 protein substrate). The note with it: read-out: SMYD3 Biochem IC50 (μM)*. From the text:
S-adenosylmethionine (SAM), S-adenosylhomocysteine (SAH), Tris, Tween20, dimethylsulfoxide (DMSO), bovine skin gelatin (BSG), and Tris(2-carboxyethyl)phosphine hydrochloride solution (TCEP) were purchased from Sigma-Aldrich at the highest level of purity possible. ^3H-SAM was purchase from American Radiolabeled Chemicals with a specific activity of 80 Ci/mmol. 384-well opaque white OptiPlates and SPA beads (Perkin Elmer, catalog # RPNQ0013) were purchased from PerkinElmer.
N-terminally GST-tagged MEKK2 (MAP3K2) protein corresponding to reference sequence AAF63496.3 was purchased from Life Technologies (catalog # PV4010). This protein was expressed in High Five insect cells and purified to >85% purity. Protein identity was confirmed by MS/MS analysis after proteolytic digestion. The protein sequence used was:
Full-length human SMYD3 isoform 1 (BAB86333) was inserted into a modified pET21b plasmid containing a His6 tag and TEV and SUMO cleavage sites. […]
The assays were all performed in a buffer consisting of 25 mM Tris-Cl pH 8.0, 1 mM TCEP, 0.005% BSG, and 0.005% Tween 20, prepared on the day of use. […] Radiolabeled MEKK2 was detected using a scintillation proximity assay (SPA). […] The plates were then read in a PerkinElmer TopCount plate reader to measure the quantity of ^3H-labeled MEKK2 as disintegrations per minute (dpm) or alternatively, referred to as counts per minute (cpm).

One may read the IC50 as the concentration that gives 50% inhibition. For `CCS(=O)(=O)N1CCC(NC(=O)c2cc(C3CC3)on2)CC1` [compound 41, 5-cyclopropyl-N-(1-(ethylsulfonyl)piperidin-4-yl)isoxazole-3-carboxamide], the IC50 amounted to 13.9 µM.
